Values quoted from earlier work, collected in US20100247707A1, “DIPEPTIDES AS FEED ADDITIVES” (EVONIK DEGUSSA GmbH, priority 2009, published 2010).

What was measured:
chicken = settings: in chicken, Baker et al. J. Nutr. 1982; cited from earlier work
[1] = Baker et al. J. Nutr. 1982; cited from earlier work

In the case of poly-L-methionine, the bioavailability (chicken) is listed as “no bioavailability” and the solubility in water [1] is listed as “completely insoluble”.
